This assay has as its target T1, GBSS recombinant protein of Arabidopsis thaliana (lacking the predicted chloroplast transit peptide, amino … (Arabidopsis thaliana, UniProt Q9MAQ0 80-610)).
T1 construct: mature; Expressed in E. coli and purified on Ni2+-NTA agarose; also called GBSS-His; AtGBSS; not shown: C-terminal His-tag from the pET24a+ vector
T1 sequence (looked up): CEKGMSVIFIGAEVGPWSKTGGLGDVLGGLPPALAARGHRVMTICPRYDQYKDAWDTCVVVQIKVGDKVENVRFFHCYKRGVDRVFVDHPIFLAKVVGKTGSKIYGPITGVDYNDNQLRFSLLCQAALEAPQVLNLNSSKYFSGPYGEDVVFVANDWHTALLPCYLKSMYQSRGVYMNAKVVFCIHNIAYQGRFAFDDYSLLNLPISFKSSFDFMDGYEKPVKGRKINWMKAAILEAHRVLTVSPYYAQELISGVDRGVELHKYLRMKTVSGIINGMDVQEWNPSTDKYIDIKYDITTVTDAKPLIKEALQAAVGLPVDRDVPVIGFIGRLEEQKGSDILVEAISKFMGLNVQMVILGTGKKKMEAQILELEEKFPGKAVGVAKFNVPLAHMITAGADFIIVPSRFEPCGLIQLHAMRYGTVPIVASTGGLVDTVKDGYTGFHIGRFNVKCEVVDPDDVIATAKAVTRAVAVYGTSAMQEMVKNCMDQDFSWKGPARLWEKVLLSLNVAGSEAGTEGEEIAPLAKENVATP
Kind of assay: Ni2+-NTA pull-down with recombinant proteins, immunoblot with anti-GST and anti-PentaHis. (In general: Immunoblotting shows a protein as a band on a membrane.)

B1: Free GST (glutathione-S-transferase) purified from cells harbouring the empty pGEX-4T-2 vector (other, UniProt P08515 1-218, looked up)
chain: MSPILGYWKIKGLVQPTRLLLEYLEEKYEEHLYERDEGDKWRNKKFELGLEFPNLPYYIDGDVKLTQSMAIIRYIADKHNMLGGCPKERAEISMLEGAVLDIRYGVSRIAYSKDFETLKVDFLSKLPEMLKMFEDRLCHKTYLNGDHVTHPDFMLYDALDVVLYMDPMCLDAFPKLVCFKKRIEAIPQIDKYLKSSKYIAWPLQGWQATFGGGDHPPK
notes: Control protein in the pull-down assay
For the molecule B1, the binding result is on record as “no binding (tested: 1 µg each)”.

Values taken from patent EP2944190A1 (ETH Zurich, dated 2015).
